Measurements: patent publication US20060019945A1, “Granzyme b inhibitors” (priority 2002, published 2006)

By UniProt entry, the sequences of proteins in these tests, tags left out. Residues count along the entry.
UniProt P10144, 21-247 limits assumed: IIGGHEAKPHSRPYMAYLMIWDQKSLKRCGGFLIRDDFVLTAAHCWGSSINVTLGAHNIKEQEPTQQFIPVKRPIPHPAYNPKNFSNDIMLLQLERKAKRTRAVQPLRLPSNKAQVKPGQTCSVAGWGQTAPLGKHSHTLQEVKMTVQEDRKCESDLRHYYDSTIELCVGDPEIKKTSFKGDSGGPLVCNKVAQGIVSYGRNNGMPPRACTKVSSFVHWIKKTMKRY

Target: human granzyme B (Homo sapiens, UniProt P10144)
Test: Fluorogenic assay for granzyme B (Ac-IEPD-AMC substrate)
Type: biochemical
Conditions: read-out: Gzm B Ki; recombinant granzyme B, substrate Ac-IEPD-AMC 10 μM, pH 7.5, 25° C.
Description: Plasmids pMelBac and the TA Cloning Kit (pCR2.1) were purchased from Invitrogen (Carlsbad, Calif.). The Bac-to-Bac Baculovirus Expression System and all cell culture supplies were from Life Technologies (Gaithersburg, Md.). The human granzyme B protease has been identified and is known in the art. See, for example, Poe, et al., J. Biol. Chem. 266, 98-103. A vector was generated for secreted protein expression in the Bac-to-Bac system. The honeybee melittin secretion signal was amplified from pMelBac by PCR with primers 5′-GTGT AGATCTATGAAATTCTTAGTCAACG-3′ and 5′-TTCAGCAGAGTCGACTCCAAG-3′. The amplified product contained a BglII site upstream of the melittin secretion signal and spanned the multiple cloning site of the vector. The fragment was digested with BglII and EcoRI and subcloned into BamHI and EcoRI digested pFastBac. The resulting vector was designated pSecBac. Activatable tagged human granzyme B was cloned into pSecBac in two sequential steps. […] The sample was readjusted to a final pH 8.0, CaCl2 (3 mM final concentration) and factor Xa (Pharmacia, 10 units per mg of protein) were added, and incubated for 18 hours at room temperature to generate active granzyme B. Under these conditions, complete cleavage is achieved. […]

With `CC[C@H](C)[C@H](NC(=O)Cc1ccccc1)C(=O)N[C@H]1CCc2cccc3c2N(C1=O)[C@H](C(=O)NCc1nn[nH]n1)C3` the Ki was 22 nM.
